Literature values, collected in patent publication US12618845B2, “Methods and compositions for protein sequencing” (Quantum-Si Incorporated, priority 2018, dated 2026).
Entries after “also recorded” stand apart in the source; their conditions may differ.

Tested on: amino acid at a terminal position of a polypeptide
Settings: amino acid identity at a terminal position of a polypeptide; phospho-Y also at an internal position; cited from earlier work

**Q.** Which “Binding Pref.” value does the source give for “H. sapiens p62 protein: amino acid recognition protein, SEQ ID NO: 29” here?
**A.** K, R, H,; also recorded: W, F, Y
